# The list shows a part of the results, in another mix than the full data. The source made the active and inactive calls.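 Rule for the calls: active = inhibition above the mean inhibition of all tested compounds plus 3 SD (cut at about 17% in these data); inactive = the rest.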
# Biological target: Troponin I, cardiac muscle (Homo sapiens) + Troponin T, cardiac muscle (Homo sapiens) + Troponin C, slow skeletal and cardiac muscles (Homo sapiens) (UniProt P19429+P45379+P63316)
# Experiment: cardiac RTF calcium sensitivity inhibitors, primary screen, biochemical, IANBD-TnC fluorescence, EC70 calcium (AID 493244)
# Conditions: IANBD-labeled cardiac RTF, Ca2+ fluorescence; at 7.15 µM; active compounds read high
row,Structure (SMILES),inhibition
1,CN1CCC(Nc2ccc(F)c(Cl)c2)CC1,inactive: -3.3%
2,CCOc1ncccc1C(=O)NCC1(N2CCOCC2)CCCCC1,inactive: -6.64%
3,O=C(O)C1(Nc2ccccc2)CCN(Cc2ccccc2)CC1,inactive: -3.53%
4,CC(C)(C)OC(=O)N1CCC(Nc2ccccc2)CC1,inactive: -9.56%
5,CCCOc1ccc(C(=O)NCC2(N(C)C)CCCCC2)cc1,inactive: -6.7%
6,COc1cc(OC)cc(C(=O)NCC2(N3CCOCC3)CCCCC2)c1,inactive: 2.93%
7,COc1cccc(C(=O)N(c2cc(C)cc(C)c2)C2CCN(C(=O)OC(C)(C)C)CC2)c1,inactive: -8.53%
8,CCC(CO)(C(=O)OC1CN2CCC1CC2)c1ccccc1 (centres undefined),inactive: 7.33%
9,CN1CCC(Nc2ccc(Cl)cc2)CC1,inactive: -0.87%
10,CC(=O)N(c1ccccc1)C1CCNCC1,inactive: 0.4%
11,COc1cc(OC)cc(C(=O)NCC2(N3CCCCC3)CCCCC2)c1,inactive: 3.24%
12,Fc1ccccc1NC1CCN(Cc2ccccc2)CC1,inactive: -10.8%
13,Cc1ccc(C(=O)NCC2(N3CCCCC3)CCCCC2)o1,inactive: -7.5%
14,Cc1ccc(NC2(C#N)CCN(Cc3ccccc3)CC2)cc1,inactive: -3.19%
15,CCN1CCC(Nc2cccc(F)c2)CC1,inactive: -10.8%
16,Cc1ccccc1NC1(C#N)CCN(Cc2ccccc2)CC1,inactive: -1.78%
17,Cn1c(=O)[nH]cc(N(CCCl)CCCl)c1=O,inactive: -6.3%
18,CN(C)c1ccc(C(=O)NCC2(N3CCCCC3)CCCCC2)cc1,inactive: -4.29%
19,O=C(NCC1(N2CCCCC2)CCCCC1)c1ccco1,inactive: -2.03%
20,N#Cc1ccc(C(=O)NCC2(N3CCCCC3)CCCCC2)cc1,inactive: 1.16%
21,CC(C)(C)OC(=O)N1CCC(N(C(=O)c2ccccc2)c2ccc(Cl)cc2)CC1,inactive: 3.03%
22,CN(C)C1(CNC(=O)c2cccc(C#N)c2)CCCCC1,inactive: -2.43%
23,CCCN1CCC(Nc2cc(OC)cc(OC)c2)CC1,inactive: -9.2%
24,Cc1cc(N(CCCl)CCCl)ccc1C=O,inactive: 1.14%
25,c1ccc(CN2CCC(Nc3ccccc3)CC2)cc1,inactive: -1.29%

row,Structure (SMILES),inhibition
1,COc1cc(C(=O)NCC2(N3CCOCC3)CCCCC2)cc(OC)c1C,inactive: -3.5%
2,O=C(NCC1(N2CCOCC2)CCCCC1)c1cc(Br)ccc1Cl,inactive: 0.94%
3,COc1ccc(C(=O)NCC2(N3CCOCC3)CCCCC2)cc1OC,inactive: 0.49%
4,CCOC(=O)N1CCC(Nc2ccc(C)cc2)CC1,inactive: 2.62%
5,N/C(=N\O)c1c(N)no[n+]1[O-],inactive: -8.27%
6,O=C(OC1CN2CCC1CC2)C1c2ccccc2C=Cc2ccccc21 (centres undefined),inactive: 4.82%
7,CC(C)c1ccc(NC2CCN(C(=O)OC(C)(C)C)CC2)cc1,inactive: -15.4%
8,CN(C)c1cccc(C(=O)NCC2(N3CCCCC3)CCCCC2)c1,inactive: -6.77%
9,COc1ccc(CN(CCCl)CCCl)cc1Cl,inactive: -1.1%
10,O=C(NCC1(N2CCOCC2)CCCCC1)c1cc(F)c(F)cc1Cl,inactive: -2.91%
11,COc1cc(OC)c(C(=O)NCC2(N(C)C)CCCCC2)cc1OC,inactive: 5.28%
12,O=C(NCC1(N2CCCCC2)CCCCC1)c1cncc(Br)c1,inactive: -6.43%
13,CN1CCC(Nc2cccc(F)c2)CC1,inactive: -17.9%
14,CCCOc1ccc(C(=O)NCC2(N(C)C)CCCCC2)cc1OC,inactive: -7%
15,O=C(NCC1(N2CCCCC2)CCCCC1)c1ccc(OC(F)F)cc1,inactive: -17.7%
16,N#CC1(Nc2ccccc2)CCN(CCc2ccccc2)CC1,inactive: -24.9%
17,CCN1CCC(Nc2ccc(Cl)cc2)CC1,inactive: -9.6%
18,O=C(NCC1(N2CCCCC2)CCCCC1)c1cccc([N+](=O)[O-])c1,inactive: 7.57%
19,CSc1ccc(C(=O)NCC2(N3CCOCC3)CCCCC2)cc1,inactive: -5.8%
20,O=C(NCC1(N2CCCCC2)CCCCC1)c1cccc(C(F)(F)F)c1,inactive: -19.6%
21,COc1cc(C(=O)NCC2(N3CCCCC3)CCCCC2)ccc1OC(F)F,inactive: -19.8%
22,O=C(NCC1(N2CCOCC2)CCCCC1)c1cc(=O)[nH]c2ccccc12,inactive: -9.88%
23,CN1CCN(CCOC(=O)C(O)(c2ccccc2)c2ccccc2)CC1,inactive: -12.4%
24,COc1ccc(NC2CCN(C(=O)OC(C)(C)C)CC2)cc1,inactive: 4.6%
25,CC(C)c1ccc(C(=O)NCC2(N3CCOCC3)CCCCC2)cc1,inactive: -2.88%

row,Structure (SMILES),inhibition
1,O=C1CCN(Cc2ccccc2)CC1,inactive: -7.62%
2,CCOc1ccc(C)cc1CN(CCCl)CCCl,inactive: -10.2%
3,COc1ccc(NC2CCN(CCc3ccccc3)CC2)c(OC)c1,inactive: -2.1%
4,CCOC(=O)N1CCC(Nc2ccc(F)cc2)CC1,inactive: -6.74%
5,O=C(NCC1(N2CCCCC2)CCCCC1)c1ccc(F)cc1,inactive: 3.24%
6,O=P1(N(CCCl)CCCl)SCCCS1,inactive: -3.34%
7,CCCCOc1ccc(C(=O)NCC2(N3CCOCC3)CCCCC2)cc1,inactive: -7.73%
8,COc1cc(C(=O)NCC2(N(C)C)CCCCC2)ccc1OC(F)F,inactive: 0.12%
9,CCOC(=O)N1CCC(Nc2cccc(C)c2)CC1,inactive: -5.03%
10,COc1ccc(C(=O)NCC2(N3CCCCC3)CCCCC2)c(OC)c1OC,inactive: -7.01%
11,CC(C)(C)OC(=O)N1CCC(N(C(=O)c2ccccc2)c2ccc(F)cc2)CC1,inactive: -7.12%
12,COc1ccc(C(=O)NCC2(N3CCCCC3)CCCCC2)cc1,inactive: -5.02%
13,O=C(NCC1(N2CCCCC2)CCCCC1)c1cccs1,inactive: 7.35%
14,O=C(NCC1(N2CCCCC2)CCCCC1)c1ccc(=O)[nH]c1,inactive: -0.14%
15,Cc1cccc(NC2(C#N)CCN(Cc3ccccc3)CC2)c1,inactive: -12.3%
16,CSc1ccccc1C(=O)NCC1(N2CCCCC2)CCCCC1,inactive: -6.09%
17,Cc1cc(C)cc(N(C(=O)c2ccccc2)C2CCN(C(=O)OC(C)(C)C)CC2)c1,inactive: 0.01%
18,O=C(NCC1(N2CCCCC2)CCCCC1)c1ccc(Cl)nc1,inactive: -8.04%
19,O=C(NCC1(N2CCOCC2)CCCCC1)c1cc2ccccc2o1,inactive: -4.54%
20,COc1ccc(Cl)cc1C(=O)NCC1(N2CCOCC2)CCCCC1,inactive: -2.3%
21,O=C(OC1CN2CCC1CC2)C1c2ccccc2Oc2ccccc21 (centres undefined),inactive: -2.87%
22,O=C(NCC1(N2CCCCC2)CCCCC1)c1ccc(Cl)s1,inactive: -7.56%
23,N#CC1(Nc2ccccc2)CCN(Cc2ccccc2)CC1,inactive: -7.57%
24,CCOC(=O)N1CCC(Nc2ccc(OC)cc2)CC1,inactive: -3.23%
